Measured values reported in patent US20210293791A1, “BACTERIAL VAGINOSIS DIAGNOSTIC” (MOLOGIC LTD, priority 2018, published 2021).

Settings: heat dried, different temperatures and drying methods

Substance: NH2—Cyc-DAla-Ser[Gal-Sial]-DAla-Arg-PEG-Biotin [MOL600c]
- functionality retained up to: ≤ 4 week
- performance appears to decline at: 8 weeks
